The record followed here is patent publication US7253211B2, “(R)-chiral halogenated substituted fused heterocyclic amino compounds useful for inhibiting cholesterol ester transfer protein activity” (Pfizer Inc., priority 1999, dated 2007).

Assay [1] has as its target T1, CETP (Homo sapiens, UniProt P11597).
T1 sequence (P11597 18-493): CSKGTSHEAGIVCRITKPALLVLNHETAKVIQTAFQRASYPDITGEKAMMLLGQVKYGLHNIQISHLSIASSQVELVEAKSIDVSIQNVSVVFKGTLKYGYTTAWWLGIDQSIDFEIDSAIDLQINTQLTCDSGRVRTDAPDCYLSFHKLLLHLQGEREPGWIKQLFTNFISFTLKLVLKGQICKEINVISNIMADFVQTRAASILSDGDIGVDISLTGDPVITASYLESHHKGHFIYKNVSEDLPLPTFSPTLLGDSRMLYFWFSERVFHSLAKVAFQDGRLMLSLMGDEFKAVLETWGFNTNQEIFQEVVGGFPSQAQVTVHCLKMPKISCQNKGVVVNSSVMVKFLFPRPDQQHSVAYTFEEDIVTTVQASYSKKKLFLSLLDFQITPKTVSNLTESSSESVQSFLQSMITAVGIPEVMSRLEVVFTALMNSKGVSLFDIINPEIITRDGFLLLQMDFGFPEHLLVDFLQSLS
In words: Assay of CETP Inhibition in Human Plasma. In kind it is biochemical. On the set-up: Blood was obtained from healthy volunteers; from tissue; host or cells: human EDTA plasma pool from healthy volunteers. The note with it: human EDTA plasma pool, [3H]CE-HDL, 37° C., 4 hours. The protocol: Assay of CETP Inhibition in Human Plasma
Blood was obtained from healthy volunteers, recruited from the personnel of Monsanto Company, Saint Louis, Mo. Blood was collected in tubes containing EDTA (EDTA plasma pool). The EDTA human plasma pool, previously stored at −20° C., was thawed at room temperature and centrifuged for 5 minutes to remove any particulate matter. […] Equal volumes (396 μL) of the plasma containing the [^3H]CE-HDL were added by pipette into micro tubes (Titertube®, Bio-Rad laboratories, Hercules, Calif.). Inhibitor compounds, dissolved as 20-50 mM stock solutions in DMSO, were serially diluted in DMSO (or an alternative solvent in some cases, such as dimethylformamide or ethanol). Four μL of each of the serial dilutions of inhibitor compounds or DMSO alone were then added to each of the tubes containing plasma (396 μL). After mixing, triplicate aliquots (100 μL) from each plasma tube were then transferred to wells of 96-well round-bottomed polystyrene microtiter plates (Corning, Corning, N.Y.). Plates were sealed with plastic film and incubated at 37° C. for 4 hours. “Test” samples contained plasma with dilutions of inhibitor compounds. “Control” samples contained plasma with DMSO diluted to the same concentration as the test samples, but without inhibitor. “Blank” samples were prepared as “control” samples, but were left in the micro tubes at 4° C. for the 4 hour incubation and were then added to the microtiter wells at the end of the incubation period. VLDL and LDL were precipitated by the addition of 10 μL of precipitating reagent (1% (w/v) dextran sulfate (Dextralip50)/0.5 M magnesium chloride, pH 7.4) to all wells. The wells were mixed on a plate mixer and then incubated at ambient temperature for 10 min. The plates were then centrifuged at 1000×g for 30 min at 10° C. The supernatants (50 μL) from each well were then transferred to Picoplate™ 96 plate wells (Packard, Meriden, Conn.) containing Microscint™-40 (Packard, Meriden, Conn.). The plates were heat-sealed (TopSeal™-P, Packard, Meriden, Conn.) according to the manufacturer's directions and mixed for 30 min. Radioactivity was measured on a microplate scintillation counter (TopCount, Packard, Meriden, Conn.). The maximum percentage transfer in the control wells (% transfer) was determined using the following equation:
[formula] The percentage of transfer relative to the control (% control) was determined in the wells containing inhibitor compounds was determined as follows:
[formula] IC50 values were then calculated from plots of % control versus concentration of inhibitor compound.

Assay [2] has as its target T1, CETP. In words: Assay of CETP Inhibition Using Purified Components (Reconstituted Buffer Assay). In kind it is biochemical. Details: made in house; host or cells: CHO cells (serum-free conditioned medium). The protocol: Assay of CETP Inhibition Using Purified Components (Reconstituted Buffer Assay)
The ability of compounds to inhibit CETP activity was assessed using an in vitro assay that measured the rate of transfer of radiolabeled cholesteryl ester ([^3H]CE) from HDL donor particles to LDL acceptor particles. Details of the assay are provided by Glenn, K. C. et al. (Glenn and Melton, “Quantification of Cholesteryl Ester Transfer Protein (CETP): A) CETP Activity and B) Immunochemical Assay of CETP Protein,” Meth. […] To measure CETP activity, [^3H]CE-labeled-HDL, LDL, CETP and assay buffer (50 mM tris(hydroxymethyl)aminomethane, pH 7.4; 150 mM sodium chloride; 2 mM ethylenediamine-tetraacetic acid (EDTA); 1% bovine serum albumin) were incubated in a final volume of 200 μL, for 2 hours at 37° C. in 96 well plates. […] The inhibitors were then diluted 1:1 with CETP in assay buffer, and then 25 μL of that solution was mixed with 175 μL of lipoprotein pool for assay. Following incubation, LDL was differentially precipitated by the addition of 50 μL of 1% (w/v) dextan sulfate/0.5 M magnesium chloride, mixed by vortex, and incubated at room temperature for 10 minutes. A potion of the solution (200 μL) was transferred to a filter plate (Millipore). After filtration, the radioactivity present in the precipitated LDL was measured by liquid scintillation counting.
This value was defined as the IC50.

Consider `OC(CN(Cc1cccc(OC(F)(F)C(F)F)c1)c1cccc(Oc2ccccc2)c1)C(F)(F)F` [Example 1, (2R,S)-3-[(3-phenoxyphenyl)[[3-(1,1,2,2-tetrafluoroethoxy)phenyl]-methyl]amino]-1,1,1-trifluoro-2-propanol], for which 5600 nM corresponded to half-maximal inhibition on CETP [1] (IC50).

Take `O[C@H](CN(Cc1cccc(OC(F)(F)C(F)F)c1)c1cccc(Oc2ccccc2)c1)C(F)(F)F` [Example 2, (2R)-3-[(3-phenoxyphenyl)[[3-(1,1,2,2-tetrafluoroethoxy)phenyl]methyl]amino]-1,1,1-trifluoro-2-propanol]: the IC50 against CETP [1] amounted to 650 nM; against CETP [2], 14 nM.

Regarding `O[C@@H](CN(Cc1cccc(OC(F)(F)C(F)F)c1)c1cccc(Oc2ccccc2)c1)C(F)(F)F` [Example 3, (2S)-3-[(3-phenoxyphenyl)[[3-(1,1,2,2-tetrafluoroethoxy)-phenyl]methyl]amino]-1,1,1-trifluoro-2-propanol], the figures for the IC50 on CETP [1] and at CETP [2] were 20000 nM and 760 nM, respectively.

In the case of `CCc1cc(Oc2cccc(N(Cc3cccc(OC(F)(F)C(F)F)c3)C[C@@H](O)C(F)(F)F)c2)ccc1Cl` [Example 8, (2R)-3-[[3-(4-chloro-3-ethylphenoxy)phenyl][[3-(1,1,2,2-tetrafluoro-ethoxy)phenyl]methyl]amino]-1,1,1-trifluoro-2-propanol], the concentration for half-maximal inhibition (IC50) was determined as 49 nM at CETP [1] and 0.8 nM at CETP [2].

With `CC(C)c1cccc(Oc2cccc(N(Cc3cccc(OC(F)(F)C(F)F)c3)C[C@@H](O)C(F)(F)F)c2)c1` [Example 10], the concentration for half-maximal inhibition (IC50) on CETP [1] was found to be 110 nM; at CETP [2], 12 nM.

For `CCc1cccc(Oc2cccc(N(Cc3cccc(OC(F)(F)C(F)F)c3)C[C@@H](O)C(F)(F)F)c2)c1` [Example 11], the IC50 on CETP [1] worked out at 72 nM; against CETP [2], 1 nM.

For the compound `O[C@H](CN(Cc1cccc(OC(F)(F)C(F)F)c1)c1cccc(Oc2cccc(OC(F)(F)F)c2)c1)C(F)(F)F` [Example 19, (2R)-3-[[3-(3-trifluoromethoxyphenoxy)phenyl][[3-(1,1,2,2-tetrafluoroethoxy)phenyl]methyl]amino]-1,1,1-trifluoro-2-propanol], the figures for the half-inhibitory concentration (IC50) on CETP [1] and against CETP [2] were 190 nM and 4 nM, respectively.

Regarding `O[C@H](CN(Cc1cccc(OC(F)(F)C(F)F)c1)c1cccc(OCc2cccc(OC(F)(F)F)c2)c1)C(F)(F)F` [Example 22], the IC50 on CETP [1] came to 140 nM; against CETP [2], 27 nM.

Usually IC50 stands for the concentration that inhibits the measured activity by half.
